Experimental data: US10882857B2, “Bicyclic compounds as ATX inhibitors” (Hoffmann-La Roche Inc., priority 2017, dated 2021)

Biological target: ATX (human His-tagged) (Homo sapiens (Human), UniProt Q13822)
Assay: Human ATX enzyme inhibition assay (fluorescence quenching, MR121 substrate)
Settings: read-out: ATX IC50; 30 nM ATX, 1 μM MR121 substrate, 30° C.
Protocol: Human ATX Enzyme Inhibition Assay
ATX inhibition was measured by a fluorescence quenching assay using a specifically labeled substrate analogue (MR121 substrate). To obtain this MR121 substrate, BOC and TBS protected 6-amino-hexanoic acid (R)-3-({2-[3-(2-{2-[2-(2-amino-ethoxy)-ethoxy]-ethoxy-}ethoxy)-propionylamino]-ethoxy}-hydroxy-phosphoryloxy)-2-hydroxy-propyl ester (Ferguson et al., Org Lett 2006, 8 (10), 2023) was labeled with MR121 fluorophore (CAS 185308-24-1, 1-(3-carboxypropyl)-11-ethyl-1,2,3,4,8,9,10,11-octahydro-dipyrido[3,2-b:2′,3′-i]phenoxazin-13-ium) on the free amine of the ethanolamine side and then, after deprotection, subsequently with tryptophan on the side of the aminohexanoic acid.
Assay working solutions were made as follows:
Assay buffer (50 mM Tris-HCl, 140 mM NaCl, 5 mM KCl, 1 mM CaCl2, 1 mM MgCl2, 0.01% Triton-X-100, pH 8.0;
ATX solution: ATX (human His-tagged) stock solution (1.08 mg/mL in 20 mM bicine, pH 8.5, 0.15 M NaCl, 10% glycerol, 0.3% CHAPS, 0.02% NaN3), diluted to 1.4-2.5× final concentration in assay buffer;
MR121 substrate solution: MR121 substrate stock solution (800 μM MR121 substrate in DMSO), diluted to 2-5× final concentration in assay buffer.
Test compounds (10 mM stock in DMSO, 8 μL) were obtained in 384 well sample plates (Corning Costar #3655) and diluted with 8 μL DMSO. […]

## O=C(c1cc(OCC2CCOCC2)nc(C2CC2)c1)N1Cc2ccc(C(=O)N3CCc4[nH]nnc4C3)cc2C1
  IC50: 8 nM
